The text below walks through data of patent US9957247B2, “SecA inhibitors and methods of making and using thereof” (Georgia State University Research Foundation, Inc., priority 2012, dated 2018).

The chains behind the UniProt entries cited, without tags or fusion partners.
UniProt P28366, whole entry: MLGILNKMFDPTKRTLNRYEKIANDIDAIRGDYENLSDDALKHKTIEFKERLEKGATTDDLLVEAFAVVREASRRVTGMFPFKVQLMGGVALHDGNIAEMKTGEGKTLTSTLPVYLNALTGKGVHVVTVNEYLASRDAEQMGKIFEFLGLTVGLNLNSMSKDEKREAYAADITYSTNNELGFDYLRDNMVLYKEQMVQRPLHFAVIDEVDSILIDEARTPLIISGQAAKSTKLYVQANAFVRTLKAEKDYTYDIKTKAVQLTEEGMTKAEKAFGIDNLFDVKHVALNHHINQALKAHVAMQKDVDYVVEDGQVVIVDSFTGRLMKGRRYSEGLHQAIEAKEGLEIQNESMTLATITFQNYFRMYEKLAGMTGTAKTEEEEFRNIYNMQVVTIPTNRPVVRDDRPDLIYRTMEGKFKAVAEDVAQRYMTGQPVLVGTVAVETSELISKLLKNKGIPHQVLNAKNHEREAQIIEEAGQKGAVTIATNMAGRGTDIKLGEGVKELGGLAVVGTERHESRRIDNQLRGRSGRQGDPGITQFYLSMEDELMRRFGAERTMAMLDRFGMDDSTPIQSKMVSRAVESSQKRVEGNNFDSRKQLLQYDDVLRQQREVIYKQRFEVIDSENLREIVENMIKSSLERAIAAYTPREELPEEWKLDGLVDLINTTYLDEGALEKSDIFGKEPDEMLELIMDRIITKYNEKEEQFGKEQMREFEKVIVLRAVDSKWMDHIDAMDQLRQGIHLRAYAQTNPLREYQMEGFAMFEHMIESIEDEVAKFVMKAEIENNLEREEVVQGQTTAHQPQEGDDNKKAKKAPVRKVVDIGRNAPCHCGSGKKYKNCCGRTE
UniProt P10408, whole entry: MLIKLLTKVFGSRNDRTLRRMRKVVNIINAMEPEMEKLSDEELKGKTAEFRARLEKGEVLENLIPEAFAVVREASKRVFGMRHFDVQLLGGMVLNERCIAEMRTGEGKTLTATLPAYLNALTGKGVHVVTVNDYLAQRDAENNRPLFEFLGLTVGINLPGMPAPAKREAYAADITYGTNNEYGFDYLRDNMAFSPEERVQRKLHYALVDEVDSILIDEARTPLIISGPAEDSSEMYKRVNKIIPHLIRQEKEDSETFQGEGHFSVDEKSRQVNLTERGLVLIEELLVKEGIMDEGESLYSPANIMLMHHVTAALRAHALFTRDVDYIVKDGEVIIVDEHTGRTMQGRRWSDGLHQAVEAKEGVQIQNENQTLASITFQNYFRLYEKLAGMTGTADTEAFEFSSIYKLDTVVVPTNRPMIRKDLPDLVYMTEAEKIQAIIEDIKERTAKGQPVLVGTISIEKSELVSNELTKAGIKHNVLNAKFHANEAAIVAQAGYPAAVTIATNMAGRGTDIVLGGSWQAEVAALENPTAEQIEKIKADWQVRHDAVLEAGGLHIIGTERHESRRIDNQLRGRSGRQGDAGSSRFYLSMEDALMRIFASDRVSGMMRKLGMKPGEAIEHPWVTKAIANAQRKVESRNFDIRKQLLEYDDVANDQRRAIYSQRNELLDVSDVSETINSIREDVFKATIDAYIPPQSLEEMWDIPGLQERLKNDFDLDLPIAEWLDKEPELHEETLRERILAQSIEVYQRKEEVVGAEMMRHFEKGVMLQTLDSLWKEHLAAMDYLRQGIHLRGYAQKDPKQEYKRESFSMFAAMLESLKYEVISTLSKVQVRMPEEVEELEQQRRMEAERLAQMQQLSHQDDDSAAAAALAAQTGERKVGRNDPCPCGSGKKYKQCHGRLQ
UniProt P0AG99, whole entry partner: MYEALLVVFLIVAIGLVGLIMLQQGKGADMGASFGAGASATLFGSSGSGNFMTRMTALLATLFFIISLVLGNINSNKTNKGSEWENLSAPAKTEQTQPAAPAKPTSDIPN
UniProt P0AGA2, whole entry partner: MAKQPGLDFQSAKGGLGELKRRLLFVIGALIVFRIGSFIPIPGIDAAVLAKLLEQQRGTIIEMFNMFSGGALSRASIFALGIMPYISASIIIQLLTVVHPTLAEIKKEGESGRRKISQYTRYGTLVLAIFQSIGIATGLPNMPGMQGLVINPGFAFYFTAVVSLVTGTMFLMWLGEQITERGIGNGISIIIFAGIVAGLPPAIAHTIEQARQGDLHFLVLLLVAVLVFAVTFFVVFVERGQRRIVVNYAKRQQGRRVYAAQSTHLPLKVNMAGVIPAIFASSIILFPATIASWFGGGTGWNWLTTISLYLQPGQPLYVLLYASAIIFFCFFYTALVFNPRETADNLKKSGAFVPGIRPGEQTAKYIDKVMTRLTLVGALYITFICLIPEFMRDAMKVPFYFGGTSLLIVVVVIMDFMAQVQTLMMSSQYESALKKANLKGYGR
UniProt P0AG96, whole entry partner: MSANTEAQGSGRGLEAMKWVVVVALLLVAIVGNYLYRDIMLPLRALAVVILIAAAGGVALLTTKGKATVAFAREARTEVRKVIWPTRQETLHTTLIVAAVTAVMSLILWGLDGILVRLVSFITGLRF

A word on the IC50: it is the point on the concentration scale where inhibition reaches its midpoint. A higher IC50 goes with weaker potency.

One assay concerns the target BsSecA (Bacillus subtilis, UniProt P28366).
Another assay concerns the target EcSecA (Escherichia coli, UniProt P10408).

`FC(F)(F)c1cc(-c2nnc(Sc3cc(Cl)nc(Sc4ccccc4)n3)[nH]2)cc(C(F)(F)F)c1`: the results for the half-maximal inhibitory concentration (IC50) against BsSecA and at EcSecA were greater than 200 µM and 5 µM, respectively.
